The text below walks through data of patent US8648078B2, “PLK inhibitor salts” (Nerviano Medical Sciences S.R.L., priority 2009, dated 2014).

The nature of data set [1]: Aqueous solubility of compound 937 salts and free base (excess solid stirred in water, filtered, HPLC). The data set is classed as physicochemical. Particulars: RT, stirred 4 hours, excess solid (target 10 mg/ml). The text has this: The obtained preparations have been filtered and analyzed by means of HPLC.
Data set [2] in a line: Solubility of compound 937 in early formulation vehicles / as in situ salt. In kind it is physicochemical. Particulars: aqueous with cosolvent or surfactant or cyclodextrin; in aqueous 50% polyethylene glycol 400 in 5% dextrose solution.

Turning to `CN1CCN(c2ccc(OC(F)(F)F)c(Nc3ncc4c(n3)-c3c(c(C(N)=O)nn3CCO)CC4)c2)CC1.O=C(O)C[C@H](O)C(=O)O` [compound 937 L-malate salt], the aqueous solubility in data set [1] worked out at 3900 µg/mL. Still for that read-out and setting: in the case of `CN1CCN(c2ccc(OC(F)(F)F)c(Nc3ncc4c(n3)-c3c(c(C(N)=O)nn3CCO)CC4)c2)CC1.O=C(O)/C=C/C(=O)O` [compound 937 fumarate salt] it was 700 µg/mL; in that of `CN1CCN(c2ccc(OC(F)(F)F)c(Nc3ncc4c(n3)-c3c(c(C(N)=O)nn3CCO)CC4)c2)CC1.O=C(O)/C=C\C(=O)O` [compound 937 maleate salt], 3100 µg/mL.

Regarding `CN1CCN(c2ccc(OC(F)(F)F)c(Nc3ncc4c(n3)-c3c(c(C(N)=O)nn3CCO)CC4)c2)CC1` [compound 937, 1-(2-hydroxy-ethyl)-8-[5-(4-methyl-piperazin-1-yl)-2-trifluoromethoxy-phenylamino]-4,5-dihydro-1H-pyrazolo[4,3-h]quinazoline-3-carboxamide], the solubility in data set [2] is approximately 7000 µg/mL. In data set [1] (listed as compound 937 free base), the aqueous solubility is less than 100 µg/mL.

What is called aqueous solubility is how much of the substance goes into solution per volume. By solubility is commonly meant the dissolved amount per volume that the medium holds.
